# Screening results deposited in PubChem by Broad Institute.
# MITF act: MITF TRPM1 promoter activation in melanoma cells; activation, % at 12.5 µM; SK-MEL-5 TRPM1-promoter luciferase, 24 h; % of positive control, neutral wells = 0; actives 0.75% (n = 300,000); AID 588334;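 active = mean activation of at least 80% with every replicate also reaching 80%; inconclusive = mean reaches 80% but some replicate falls short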;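 note: 0% = neutral control wells and 100% = parthenolide positive control wells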
# PGC1a acetyl inh: PGC1a acetylation modulation, inhibitor mode. actives 0.17% (n = 350,000). AID 651687. inhibition, % at 15.6 µM. U2OS PGC1a acetylation, AlphaScreen anti-acetyl-lysine; with virally co-expressed GCN5 acetyltransferase;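 active = every replicate shows inhibition of at least 40%; inconclusive = mean inhibition at least 40% but some replicate below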;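 note: 0% = neutral control wells and 100% = positive control wells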
# Wnt act: Wnt/beta-catenin pathway activation; Wnt/beta-catenin reporter cell assay, activator, plate reader; activation, % at 9.35 µM; actives 1.2% (n = 300,000); in the data active = activation above about 30%, passing the limit was not always enough; inconclusive = no clear call, values can overlap the other calls;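 note: 0% = neutral control wells and 100% = positive control wells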
# TRPM1 prom inh: reduces MITF-dependent TRPM1 promoter luciferase signal; actives 0.83% (n = 330,000); SK-MEL-5 TRPM1 promoter luciferase, 24 h; inhibition, % at 12.5 µM;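 active = mean inhibition across replicates of 60% or more, whatever share of single replicates reaches that level; inconclusive = some that reach 60%, reason not given; inactive = mean inhibition across replicates below 60%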
# miR-122 sensor: inhibitors of miR-122 in Huh7 cells | Huh7 miR-122 Renilla luciferase sensor, 48 h; neutral wells = 0, positive control = 100 | activation (reporter increase), % at 12.5 µM | actives 0.3% (n = 340,000);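 active = mean replicate activation score at least 90 and every replicate individually at or above 90; inconclusive = only one of the two criteria met; inactive = neither criterion met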;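 note: higher luciferase means less miR-122 activity so hits act as miR-122 inhibitors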
# UUG fidelity: modulators of yeast start codon fidelity, primary screen, whole organism, S. cerevisiae, single point, plate reader; S. cerevisiae UUG-firefly luciferase reporter, luminescence/redox ratio; activity score, % at 18.7 µM; 0.13% of 350,000 active; AID 602363, 2012;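 active = replicate mean at a twofold rise or more, about +100% in these data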;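 also: firefly luciferase made from a UUG start codon reports start codon fidelity; reporter light over untreated wells divided by growth signal over untreated wells; some hits fall short of that in this replicate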
# * = called active by the depositor; ? = inconclusive; / = no result; [ ] = remark or other dose. Rows were chosen to be rich in hits. Some 2.1% of all compounds tested hit in one or more screens of this group.
no.	compound	MITF act	PGC1a acetyl inh	Wnt act	TRPM1 prom inh	miR-122 sensor	UUG fidelity
1	COCC#Cc1ccc2c(c1)O[C@H](CN(C)Cc1ccc3c(c1)OCO3)[C@@H](C)CN([C@@H](C)CO)S2(=O)=O	/	0	/	/	109*[16.7 µM]	2
2	COCC#Cc1ccc2c(c1)O[C@@H](CN(C)Cc1ccc3c(c1)OCO3)[C@H](C)CN([C@@H](C)CO)S2(=O)=O	/	3	/	/	-1[16.7 µM]	0
3	C/C=C/c1ccc2c(c1)O[C@H](CN(C)S(=O)(=O)c1ccc(C)cc1)[C@H](C)CN([C@H](C)CO)S2(=O)=O	/	-1	/	/	42[16.7 µM]	-7
4	CCCC#Cc1ccc2c(c1)O[C@H](CN(C)C(=O)c1ccccn1)[C@@H](C)CN([C@H](C)CO)S2(=O)=O	/	-6	/	/	128*[16.7 µM]	35
5	CC(C)CC#Cc1ccc2c(c1)O[C@H](CN(C)Cc1ccccc1)[C@H](C)CN([C@@H](C)CO)S2(=O)=O	/	48*	/	/	4[16.7 µM]	7
6	CCOC(=O)C1CCN(c2ccc(-c3cccs3)nn2)CC1	84*	-4	38*	-79	/	-57
7	c1csc(-c2ccc(N3CCOCC3)nn2)c1	1	6	34*	-5	0	-42
8	CN1C2=CC=CC=CC2=[N+](C)C12C([N+](=O)[O-])=CC(=[N+]([O-])[O-])C=C2[N+](=O)[O-] (stereo unspecified)	/	-27	106*	70*	3	-1
9	Cc1csc(=NC(=O)c2ccccc2)n1C	/	1	34*	-60	-7	5
10	CCn1c(C)csc1=NC(=O)c1ccccc1	0	2	20	-4	0	-7
11	O=C(c1ccccc1)c1ccc(N2CCCC2)cc1	94*	5	20	-110	0	5
12	O=C(Cc1ccccc1)Nc1ccc(N2CCCCC2)cc1	62	-6	59*	-64	-2	/
13	Cc1ccc(C(=O)Nc2cccc(C(=O)N3CCOCC3)c2)cc1	9	-3	41*	-14	-2	-17
14	O=C(c1ccccc1)c1ccc(N2CCOCC2)cc1	72	/	23	-78	/	/
15	Cc1cnc(C(=O)Nc2ccc(N3CCCCC3)cc2)cn1	92*	-29	8	-82	/	/
16	CN1CCN(c2ccc(NC(=O)Cc3ccccc3)cc2)CC1	67	-4	27	-63	6	-19
17	Cc1cnc(C(=O)Nc2ccc(N3CCOCC3)cc2)cn1	55	2	/	-54	-4	93
18	Cc1ccc(C(=O)Nc2ccc(N3CCCCC3)cc2)cc1	106*	-5	?	-101	-11	-16
19	O=C(Nc1ccc(N2CCCC2)cc1)c1ccc2ccccc2c1	48	/	32*	-45	12	/
20	O=C(Nc1ccc(N2CCCCC2)cc1)c1cncc(Br)c1	128*	13	39*	-122	3	-13
21	O=C(Nc1ccc(S(=O)(=O)N2CCCC2)cc1)c1cncc(Br)c1	15	4	-3	-14	/	-10
22	CCC(=O)N1CC(=O)N2[C@H](C1)[C@H](c1ccc(C#Cc3cccnc3)cc1)[C@@H]2CO	/	-3	/	/	/	/
23	O=C(C1CCCC1)N1C[C@@H]2[C@H](c3ccccc31)[C@@H](CO)N2C(=O)c1cccnc1	/	4	/	/	-5[16.7 µM]	48
24	COCC#Cc1ccc2c(c1)O[C@H](CN(C)C(=O)CN(C)C)[C@H](C)CN([C@H](C)CO)S2(=O)=O	/	6	/	/	-16[16.7 µM]	-3
25	Cc1cc(C2CCCCC2)n(O)c(=O)c1	-77	14	-23	78*	12	-4
26	Fc1ccccc1-c1nc2ccccc2[nH]1	85*	/	56*	-80	/	/
27	Clc1ccccc1-c1nc2ccccc2[nH]1	/	-5	48*	-66	-4	-19
28	c1ccc2[nH]c(-c3ccnc4ccccc34)nc2c1	18	-7	38*	-17	2	-10
29	C[C@@H]1CN([C@H](C)CO)C(=O)c2cc(/C=C/c3ccccc3)cnc2O[C@@H]1CN(C)C(=O)c1ccc2c(c1)OCO2	/	-8	/	/	0[16.7 µM]	2
30	Nc1c(C(=O)c2ccc(Br)s2)oc2ccccc12	30	2	35*	-27	7	-17

# 3 entries from above, sorted by their value in TRPM1 prom inh, falling:
no.	compound	MITF act	PGC1a acetyl inh	Wnt act	TRPM1 prom inh	miR-122 sensor	UUG fidelity
19	O=C(Nc1ccc(N2CCCC2)cc1)c1ccc2ccccc2c1	48	/	32*	-45	12	/
26	Fc1ccccc1-c1nc2ccccc2[nH]1	85*	/	56*	-80	/	/
20	O=C(Nc1ccc(N2CCCCC2)cc1)c1cncc(Br)c1	128*	13	39*	-122	3	-13

# Limited to miR-122 sensor and PGC1a acetyl inh, for five of the compounds above:
cpd	SMILES	miR-122 sensor	PGC1a acetyl inh
19	O=C(Nc1ccc(N2CCCC2)cc1)c1ccc2ccccc2c1	12	/
21	O=C(Nc1ccc(S(=O)(=O)N2CCCC2)cc1)c1cncc(Br)c1	/	4
27	Clc1ccccc1-c1nc2ccccc2[nH]1	-4	-5
18	Cc1ccc(C(=O)Nc2ccc(N3CCCCC3)cc2)cc1	-11	-5
30	Nc1c(C(=O)c2ccc(Br)s2)oc2ccccc12	7	2

# Continued.
# Sequence of screens: MITF act, PGC1a acetyl inh, Wnt act, TRPM1 prom inh, miR-122 sensor, UUG fidelity
[31] Nc1c(C(=O)c2cccs2)oc2ccccc12
    /, /, /, -38, -1, -9
[32] CCOc1ccc(-c2ccc(SC)nn2)cc1
    -62, /, -7, 62*, -3, -81
[33] CCOc1ccc(-c2ccc(SCC(=O)Nc3nnc(CC)s3)nn2)cc1
    66, /, 11, -69, /, /
[34] CCCNC(=O)C[C@H]1CC[C@@H]2[C@@H](COc3ccc(NC(=O)c4cccc(C(F)(F)F)c4)cc3C(=O)N2C)O1
    /, 0, /, /, -10[16.7 µM], 8
[35] C[C@H](CO)N1C[C@H](C)[C@H](CN(C)C(=O)c2ccccn2)Oc2cc(C3=CCCC3)ccc2S1(=O)=O
    /, -5, /, /, 11[16.7 µM], -5
[36] CCn1c(COc2ccc(OC)cc2)nc2ccccc21
    59, -4, 43*, -45, /, -17
[37] CCOC(=O)N1CCN(C(=O)c2ccc3oc(CCc4ccccc4)nc3c2)CC1
    /, 16, 0, /, -5, -10
[38] O=C(c1ccc2oc(CCc3ccccc3)nc2c1)N1CCC(O)CC1
    92*, 1, 26, -90, 2, -23
[39] Cc1ccc(Cn2nc(-c3ccccc3)nc2-c2ccccc2)cc1
    63, -16, 55*, -74, -2, -10
[40] c1ccc(Cn2nc(-c3ccccc3)nc2-c2ccccc2)cc1
    19, 7, /, -19, -2, -4
[41] CCCN1C[C@@H](C)[C@@H](OC)CN(C)C(=O)c2ccc(NC(=O)CC)cc2OC[C@@H]1C
    /, 6, /, /, -5[16.7 µM], /
[42] CSCC(O)Cn1[nH]c(=O)c2cc(Cl)c(Cl)cc2c1=O (stereo unspecified)
    -2, 84*, 30, 4, /, /
[43] CC(OC(=O)Cn1[nH]c(=O)c2ccccc2c1=O)C(=O)Nc1ccc(F)cc1Cl (stereo unspecified)
    1, 8, 0, -8, -1, -14
[44] O=C(NC1=NCCS1)Nc1ccccc1
    41, 1, 42*, -42, -6, -33
[45] C[C@@H](NC(=O)C[C@@H]1C=C[C@@H](NC(=O)C2CCC2)[C@H](CO)O1)c1ccccc1
    /, 2, /, /, /, -22
[46] Cc1nc2cc(NC(=O)c3ccc([N+](=O)[O-])s3)ccc2s1
    -103, -20, 18, 104*, -7, -9
[47] Cc1cc(NC(=O)c2cncc(Br)c2)ccc1NC(=O)c1cc2ccccc2o1
    -65, 0, -4, 65*, -3, -12
[48] CCc1sc(C(=O)Nc2ccc(NC(C)=O)cc2)cc1C
    10, /, 3, -9, /, /
[49] CCc1sc(C(=O)Nc2ccc3nc(C)sc3c2)cc1C
    90*, -1, 13, -87, 8, -10
[50] Cc1nc2ccc(NC(=O)c3ccco3)cc2s1
    91*, /, ?, -82, /, /
[51] CC(C)CC#Cc1ccc2c(c1)O[C@H](CN(C)C(=O)Cc1ccccn1)[C@H](C)CN([C@H](C)CO)S2(=O)=O
    /, 5, /, /, 13[16.7 µM], 6
[52] O=C(Nc1ccc(S(=O)(=O)NC2=NCCCCC2)cc1)c1ccc([N+](=O)[O-])s1
    -89, -43, 0, 89*, 13, 1
